Chains of the proteins cited; added tags and fusions are not shown.
UniProt Q9XSB5, whole entry, looked up: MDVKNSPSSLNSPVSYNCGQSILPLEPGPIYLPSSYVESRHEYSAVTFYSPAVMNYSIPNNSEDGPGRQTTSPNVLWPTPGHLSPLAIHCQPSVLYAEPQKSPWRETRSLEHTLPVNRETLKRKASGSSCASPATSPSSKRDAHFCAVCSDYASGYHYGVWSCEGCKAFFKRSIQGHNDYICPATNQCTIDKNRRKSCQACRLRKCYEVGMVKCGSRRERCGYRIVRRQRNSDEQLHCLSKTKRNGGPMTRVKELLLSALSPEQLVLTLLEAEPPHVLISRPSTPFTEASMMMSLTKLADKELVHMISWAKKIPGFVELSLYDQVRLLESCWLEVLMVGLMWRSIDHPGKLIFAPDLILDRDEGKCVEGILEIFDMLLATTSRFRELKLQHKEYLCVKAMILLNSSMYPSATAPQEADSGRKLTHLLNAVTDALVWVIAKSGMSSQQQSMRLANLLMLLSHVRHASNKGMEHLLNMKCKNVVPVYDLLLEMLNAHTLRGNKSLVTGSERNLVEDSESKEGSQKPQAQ
UniProt P49884, whole entry, looked up: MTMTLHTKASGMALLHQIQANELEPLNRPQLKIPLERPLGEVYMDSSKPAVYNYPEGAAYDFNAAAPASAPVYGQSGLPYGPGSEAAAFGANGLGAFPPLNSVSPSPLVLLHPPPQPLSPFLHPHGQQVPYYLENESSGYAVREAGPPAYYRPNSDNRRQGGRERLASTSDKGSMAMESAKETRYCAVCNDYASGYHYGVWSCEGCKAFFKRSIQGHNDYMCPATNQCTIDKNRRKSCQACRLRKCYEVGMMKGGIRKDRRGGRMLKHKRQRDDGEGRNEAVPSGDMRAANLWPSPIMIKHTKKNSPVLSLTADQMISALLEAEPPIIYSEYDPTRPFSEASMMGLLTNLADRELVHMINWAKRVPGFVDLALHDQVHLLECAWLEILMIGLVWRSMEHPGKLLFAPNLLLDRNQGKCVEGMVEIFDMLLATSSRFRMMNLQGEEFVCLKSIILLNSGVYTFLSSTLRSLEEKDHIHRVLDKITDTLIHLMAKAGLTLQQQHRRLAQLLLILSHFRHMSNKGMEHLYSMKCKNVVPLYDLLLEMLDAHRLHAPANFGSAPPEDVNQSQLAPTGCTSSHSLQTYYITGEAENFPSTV

According to ChEMBL document CHEMBL1134500, “Investigations of new lead structures for the design of selective estrogen receptor modulators” (J Med Chem, 2001):

Target: Estrogen receptor (Bos taurus) (UniProt Q9XSB5+P49884)
Test: Displacement of 17-beta-[3H]-estradiol from estrogen receptor relative to 17-beta-estradiol
Format: protein assay
Summary of the method: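 Competitive binding with calf uterine cytosol as receptor source and 17β-[3H]estradiol (0.723 pmol per tube) as tracer. Compounds were dissolved in ethanol, diluted in TRIS buffer to six to eight concentrations and incubated overnight at 4 °C. Free ligand was removed with dextran-charcoal (90 min, 4 °C), then supernatant was scintillation counted. Nonspecific binding was set with 2 nmol estradiol. RBA = ratio of 50%-inhibiting concentrations (estradiol/sample) × 100%.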

In the case of `Oc1ccc([C@H]2N=CN[C@H]2c2c(Cl)cc(O)cc2Cl)c(Cl)c1`, the RBA is reported as 0.08%.
